This is an account of results in US5703097A, “5-pyrrolyl-2-pyridylmethylsulfinyl benzimidazole derivatives” (priority 1994, dated 1997).

Where two headings read alike, the source gives them in different places. Some results are limits rather than exact numbers.

The test system of the data set is ICR (male, female) mouse. The conditions noted are these: in vivo, po. How it is done: Five weeks aged ICR (male, female) mouse were pre-bred in the breeding cage for one week and then the animals showing a smooth gain in body weight were randomly selected and used in this test. The amount to be administered to the test animals was established on the basis of the maximum dose of 4,000 mg/kg with the common ratio of 1.5.
The test compounds in a powder form were suspended in 0.5% methylcellulose and administered per oral using a syringe. The other specific conditions for administration are described in the following.
In the above test, the control group received only 0.5% methylcellulose.

The term LD50 denotes the dose at which mortality reaches 50%. The low end stands for greater toxicity, the high end for lower toxicity. `COc1ccc2[nH]c([S+]([O-])Cc3ncc(C)c(OC)c3C)nc2c1` (stereo not drawn) [Omeprazole, 5-methoxy-2-[[(4-methoxy-3,5-dimethyl-2-pyridinyl)methyl]sulfinyl]-1H-benzimidazole, reference compound] displayed an LD50 greater than 4000.0 mg/kg. The Lethality (1178 mg/kg) was 0/5. The Lethality (1185 mg/kg) is recorded as 0/5. The Lethality (1778 mg/kg) is 0/5. For the same molecule, under “2667 mg/kg”, the Lethality is 0/5.

On to `COc1ccnc(C[S+]([O-])c2nc3cc(-n4cccc4)ccc3[nH]2)c1C` (stereo not drawn) [Compound 2, 2-[[(4-methoxy-3-methyl)-2-pyridinyl]methylsulfinyl]-5-(1H-pyrrol-1-yl)-1H-benzimidazole], for which the Lethality is reported as 0/5 (1178 mg/kg), 0/5 (1185 mg/kg), 0/5 (1778 mg/kg) and 0/5 (2667 mg/kg).
